Key:
[1] = target: 5-hydroxytryptamine receptor 2A (Homo sapiens, UniProt P28223); assay: Binding affinity to human recombinant 5-HT2A receptor by radioligand displacement assay
[2] = target: 5-hydroxytryptamine receptor 7 (Homo sapiens, UniProt P34969); assay: Binding affinity to human recombinant 5-HT7 receptor by radioligand displacement assay
[3] = target: Sodium-dependent serotonin transporter (Rattus norvegicus, UniProt P31652); assay: Inhibition of [3H]5-HT uptake at SERT in rat cortical synaptosomes; type: subcellular, Brain
[4] = target: 5-hydroxytryptamine receptor 2B (Homo sapiens, UniProt P41595); assay: Binding affinity to human recombinant 5-HT2B receptor by radioligand displacement assay
[5] = target: 5-hydroxytryptamine receptor 1B (Homo sapiens, UniProt P28222); assay: Displacement of [3H]5-HT from human recombinant 5-HT1B receptor expressed in CHO cells; type: cell-based
[6] = target: 5-hydroxytryptamine receptor 1A (Homo sapiens, UniProt P08908); assay: Displacement of [3H]WAY100635 from human recombinant 5-HT1A receptor expressed in CHO cells; type: cell-based
D(3) dopamine receptor = D(3) dopamine receptor (Homo sapiens, UniProt P35462); assay: Binding affinity to human recombinant dopamine D3 receptor by radioligand displacement assay
[7] = target: 5-hydroxytryptamine receptor 1D (Homo sapiens, UniProt P28221); assay: Displacement of [3H]5-HT from human recombinant 5-HT1D receptor expressed in CHO cells; type: cell-based
D(2) dopamine receptor = D(2) dopamine receptor (Homo sapiens, UniProt P14416); assay: Binding affinity to human recombinant dopamine D2 receptor by radioligand displacement assay
MDR1 (P-gp) = assay: in vitro; conditions: dog, MDCK-MDR1

Sequences of proteins named here, by UniProt entry; tags and fusion partners are left off. A change or cut given only in a name is not applied to a line headed by its entry.
UniProt P28223, whole entry: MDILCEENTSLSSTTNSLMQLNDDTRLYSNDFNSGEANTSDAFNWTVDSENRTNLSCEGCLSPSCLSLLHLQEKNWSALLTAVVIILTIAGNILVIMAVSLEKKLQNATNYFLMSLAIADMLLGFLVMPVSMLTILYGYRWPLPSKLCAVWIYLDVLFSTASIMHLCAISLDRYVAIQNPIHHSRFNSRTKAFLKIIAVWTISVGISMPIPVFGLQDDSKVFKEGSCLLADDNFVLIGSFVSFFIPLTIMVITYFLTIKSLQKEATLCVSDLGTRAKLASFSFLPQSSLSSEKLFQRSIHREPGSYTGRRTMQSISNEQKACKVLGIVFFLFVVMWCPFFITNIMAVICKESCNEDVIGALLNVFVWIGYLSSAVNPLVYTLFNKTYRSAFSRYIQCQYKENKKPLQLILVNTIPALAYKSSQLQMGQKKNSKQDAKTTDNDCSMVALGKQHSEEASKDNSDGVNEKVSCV
UniProt P34969, whole entry: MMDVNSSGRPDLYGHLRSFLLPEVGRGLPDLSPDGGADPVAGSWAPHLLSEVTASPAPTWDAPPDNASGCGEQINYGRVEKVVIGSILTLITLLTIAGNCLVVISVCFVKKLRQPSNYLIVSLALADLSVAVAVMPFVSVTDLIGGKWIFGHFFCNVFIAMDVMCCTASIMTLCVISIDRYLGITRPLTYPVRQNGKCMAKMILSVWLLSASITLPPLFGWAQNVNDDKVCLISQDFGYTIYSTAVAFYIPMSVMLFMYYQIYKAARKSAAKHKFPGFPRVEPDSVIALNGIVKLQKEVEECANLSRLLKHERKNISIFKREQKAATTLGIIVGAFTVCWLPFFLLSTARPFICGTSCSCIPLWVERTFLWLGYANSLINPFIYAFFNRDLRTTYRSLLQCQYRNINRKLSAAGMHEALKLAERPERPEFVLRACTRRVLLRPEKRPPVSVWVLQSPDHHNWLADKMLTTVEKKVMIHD
UniProt P31652, whole entry: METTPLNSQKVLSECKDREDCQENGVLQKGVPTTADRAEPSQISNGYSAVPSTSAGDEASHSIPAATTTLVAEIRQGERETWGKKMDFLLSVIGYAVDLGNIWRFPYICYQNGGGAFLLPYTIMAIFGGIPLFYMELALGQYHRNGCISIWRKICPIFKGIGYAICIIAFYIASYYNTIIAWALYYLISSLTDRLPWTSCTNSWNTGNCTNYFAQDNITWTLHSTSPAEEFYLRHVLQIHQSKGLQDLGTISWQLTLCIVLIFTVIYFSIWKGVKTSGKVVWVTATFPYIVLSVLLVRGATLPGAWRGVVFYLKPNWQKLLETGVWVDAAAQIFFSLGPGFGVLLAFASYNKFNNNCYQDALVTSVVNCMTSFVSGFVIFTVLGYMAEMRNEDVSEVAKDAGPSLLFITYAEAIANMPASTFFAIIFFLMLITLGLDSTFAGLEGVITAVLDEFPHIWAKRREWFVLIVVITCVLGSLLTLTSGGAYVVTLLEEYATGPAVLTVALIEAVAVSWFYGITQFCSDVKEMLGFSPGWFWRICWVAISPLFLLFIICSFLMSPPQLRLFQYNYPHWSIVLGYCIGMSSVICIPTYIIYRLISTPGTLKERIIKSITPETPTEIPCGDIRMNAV
UniProt P41595, whole entry: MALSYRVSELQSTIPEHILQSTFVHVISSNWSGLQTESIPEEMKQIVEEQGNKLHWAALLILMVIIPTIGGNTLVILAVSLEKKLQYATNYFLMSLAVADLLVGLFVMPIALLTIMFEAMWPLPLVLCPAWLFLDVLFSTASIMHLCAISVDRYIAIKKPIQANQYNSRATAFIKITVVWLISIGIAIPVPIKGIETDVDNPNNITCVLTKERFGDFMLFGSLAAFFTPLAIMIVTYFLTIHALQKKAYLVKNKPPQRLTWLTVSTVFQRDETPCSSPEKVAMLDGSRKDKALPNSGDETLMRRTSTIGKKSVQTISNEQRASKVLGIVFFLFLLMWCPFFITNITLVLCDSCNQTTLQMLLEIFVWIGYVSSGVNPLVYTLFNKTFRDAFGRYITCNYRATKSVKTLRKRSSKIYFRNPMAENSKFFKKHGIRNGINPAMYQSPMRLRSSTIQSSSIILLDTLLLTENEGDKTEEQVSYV
UniProt P28222, whole entry: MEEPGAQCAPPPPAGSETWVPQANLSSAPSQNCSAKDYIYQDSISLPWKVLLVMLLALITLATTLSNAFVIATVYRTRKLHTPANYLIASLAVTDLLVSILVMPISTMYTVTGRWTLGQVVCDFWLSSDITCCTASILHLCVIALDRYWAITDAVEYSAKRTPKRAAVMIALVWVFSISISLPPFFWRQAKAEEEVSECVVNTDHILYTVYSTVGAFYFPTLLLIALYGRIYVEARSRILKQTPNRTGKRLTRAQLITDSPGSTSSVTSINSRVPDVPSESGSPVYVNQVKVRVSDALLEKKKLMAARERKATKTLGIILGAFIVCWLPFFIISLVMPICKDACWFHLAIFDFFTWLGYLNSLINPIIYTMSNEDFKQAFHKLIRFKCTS
UniProt P08908, whole entry: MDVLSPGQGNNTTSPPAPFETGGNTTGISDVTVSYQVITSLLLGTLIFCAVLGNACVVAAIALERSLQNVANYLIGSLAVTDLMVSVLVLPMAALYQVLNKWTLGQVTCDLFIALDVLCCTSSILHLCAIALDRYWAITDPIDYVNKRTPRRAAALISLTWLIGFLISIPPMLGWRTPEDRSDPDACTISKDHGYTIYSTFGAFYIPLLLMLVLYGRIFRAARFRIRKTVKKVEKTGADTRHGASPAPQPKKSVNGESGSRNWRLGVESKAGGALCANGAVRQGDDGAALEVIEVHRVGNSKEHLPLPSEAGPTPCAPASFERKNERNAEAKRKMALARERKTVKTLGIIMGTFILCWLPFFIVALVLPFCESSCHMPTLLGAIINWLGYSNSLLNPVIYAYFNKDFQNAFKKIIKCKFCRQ
UniProt P35462, whole entry: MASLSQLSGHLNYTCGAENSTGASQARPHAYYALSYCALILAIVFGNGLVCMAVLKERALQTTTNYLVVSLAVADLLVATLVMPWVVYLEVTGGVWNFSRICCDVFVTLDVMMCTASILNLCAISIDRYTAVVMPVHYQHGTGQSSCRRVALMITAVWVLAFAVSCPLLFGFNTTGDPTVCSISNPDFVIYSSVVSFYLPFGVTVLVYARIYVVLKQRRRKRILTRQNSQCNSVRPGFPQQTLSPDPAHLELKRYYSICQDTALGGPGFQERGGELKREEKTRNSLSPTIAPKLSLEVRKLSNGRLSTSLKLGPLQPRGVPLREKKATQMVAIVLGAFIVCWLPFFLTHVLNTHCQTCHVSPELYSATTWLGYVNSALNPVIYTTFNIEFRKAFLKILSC
UniProt P28221: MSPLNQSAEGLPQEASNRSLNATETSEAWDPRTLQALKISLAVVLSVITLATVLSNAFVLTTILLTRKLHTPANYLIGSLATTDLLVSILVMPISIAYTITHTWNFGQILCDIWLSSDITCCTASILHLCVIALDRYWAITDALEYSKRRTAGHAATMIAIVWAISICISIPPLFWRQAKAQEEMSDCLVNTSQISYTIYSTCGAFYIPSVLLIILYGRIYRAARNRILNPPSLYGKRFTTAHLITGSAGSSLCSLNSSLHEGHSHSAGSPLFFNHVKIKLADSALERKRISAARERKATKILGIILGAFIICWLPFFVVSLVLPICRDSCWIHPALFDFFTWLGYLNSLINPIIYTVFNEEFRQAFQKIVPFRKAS
UniProt P14416, whole entry: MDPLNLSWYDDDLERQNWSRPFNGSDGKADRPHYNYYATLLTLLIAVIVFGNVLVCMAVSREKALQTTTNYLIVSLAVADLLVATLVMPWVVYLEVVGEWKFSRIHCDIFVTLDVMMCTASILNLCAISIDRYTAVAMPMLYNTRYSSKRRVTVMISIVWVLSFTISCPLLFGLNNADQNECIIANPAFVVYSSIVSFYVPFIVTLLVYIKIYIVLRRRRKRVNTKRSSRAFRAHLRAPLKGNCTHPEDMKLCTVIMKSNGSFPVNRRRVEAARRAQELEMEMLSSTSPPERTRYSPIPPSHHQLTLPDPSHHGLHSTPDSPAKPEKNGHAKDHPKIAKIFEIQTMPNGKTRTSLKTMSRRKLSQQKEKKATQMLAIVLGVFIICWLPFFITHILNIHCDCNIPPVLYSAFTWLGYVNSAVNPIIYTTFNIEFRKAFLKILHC

SMILES: Cc1ccc2c(N3CCN(CCc4cccc(N5CCNC5=O)c4)CC3)cccc2n1 [GSK163090]
- Ki [1]: 1 µM
- Ki [2]: 0.158 µM
- Ki [3]: 0.794 µM
- Ki [4]: 0.501 µM
- Ki [5]: 0.00316 µM
- Ki [6]: 0.000398 µM
- Ki (D(3) dopamine receptor): 0.2 µM
- Ki [7]: 0.0002 µM
- Ki (D(2) dopamine receptor): 0.501 µM
- efflux ratio at 1 µM (MDR1 (P-gp)): 2.8

From ChEMBL document CHEMBL1629528, “Discovery of 1-(3-{2-[4-(2-methyl-5-quinolinyl)-1-piperazinyl]ethyl}phenyl)-2-imidazolidinone (GSK163090), a Potent, selective, and orally active 5-HT1A/B/D receptor antagonist” (J Med Chem, 2010)
